# Data from article PMC6487500 (Molecular imaging and biology : MIB : the official …, 2019).
# System: BT474 xenografts
# Assay: PET/CT imaging of mice bearing BT474 xenografts
# Conditions: PET/CT 1 h post-injection
structure (smiles),measurement,value
"CC[C@H](C)[C@H](NC(=O)CNC(=O)[C@H](CC(=O)O)NC(=O)[C@H](CO)NC(=O)[C@@H](N)Cc1c[nH]cn1)C(=O)N[C@@H](Cc1ccccc1)C(=O)N[C@H](C(=O)N[C@@H](CC(=O)O)C(=O)N[C@@H](CO)C(=O)N[C@@H](Cc1ccc(O)cc1)C(=O)N[C@@H](CO)C(=O)N[C@@H](CCCNC(=N)N)C(=O)N[C@@H](Cc1ccc(O)cc1)C(=O)N[C@@H](CCCNC(=N)N)C(=O)N[C@@H](CCCCN)C(=O)N[C@@H](CCC(N)=O)C(=O)N[C@@H](CCSC)C(=O)N[C@@H](C)C(=O)N[C@H](C(=O)N[C@@H](CCCCN)C(=O)N[C@@H](CCCCN)C(=O)N[C@@H](Cc1ccc(O)cc1)C(=O)N[C@@H](CC(C)C)C(=O)N[C@@H](C)C(=O)N[C@@H](C)C(=O)N[C@H](C(=O)N[C@@H](CC(C)C)C(=O)NCCCC(=O)N[C@@H](CCCCNC(=O)CCC(C(=O)O)N1CCN(CC(=O)O)CCN(CC(=O)O)CC1)C(=O)O)C(C)C)C(C)C)[C@@H](C)O (stereo partly shown) [[^68Ga]NODAGA-peptide, metal not drawn]",delineation of BC tumors in PET imaging,delineated the BC tumors
